Experimental data from patent publication US4235916A, “2-Methylthio-6-fluoro-9-(1-methyl-4-piperidylidene)-thioxanthene and salts thereof, neuroleptic compositions and method of use” (Kefalas A/S, priority 1977, dated 1980).

Tests used:
Muscarinic = Muscarinic affinity binding (3H-PrBCM, whole brain P2 fraction); set-up: species or system Rats; details: displacement of specific 3H-PrBCM binding by 50%; rat brain, pH 7.4, 30° C.; read-out: Muscarine affinity (IC50)
Procedure: Muscarinic affinity binding
Sodium thiosulphate 10 mM (2.48 g/1000 ml) ^3 H-PrBCM (N-2'-chloroethyl-N-[2", 3"-^3 H2 ] propyl-2-aminoethylbenzilate,spec. act. ~28 Ci/mM).
A rat is killed by a blow on the head and exsanguinated. The whole brain is removed and homogenized in 10 volumes of ice cold 0.32 M sucrose with a hand homogenizer. The homogenate is centrifuged at 600 g for 10 minutes (4° C.) and the pellet discarded. The supernatant is then centrifuged at 25000 g for 55 minutes (4° C.). The pellet fraction (P2) is resuspended in the same volume of 0.32 M sucrose as previously used and stored on ice.
The aziridinium ion of ^3 H-propylbenzilyllcholine mustard (^3 H-PrBCM) is prepared by cyclization at a concentration of 130 nM in 15 mM Na-phosphate buffer (pH 7.4) for 50 minutes at 20° C. The reaction is terminated by addition of 100 volumes of ice cold buffer.
The incubation is continued for 15 minutes and stopped by addition of 20 ml 100 mM phosphate buffer containing 10 mM sodium thiosulphate. The samples are filtered through Whatman GF/C glass fiber filters and washed with 30 ml ice cold 100 mM phosphate buffer. The filters with synaptosomes are transferred to scintillation vials and the radio-activity measured by liquid scintillation counting after addition of 10 ml Instal-Gel (Packard Inst.). All experiments are performed in triplicate. […]

[1] = Catalepsy wire mesh, rat, max.; type: in vivo, male; details: catalepsy ED50 (s.c.) / amphetamine antagonism ED50 (i.p.), rats
Procedure: Catalepsy wire mesh, rat, max. (ED50 mg/kg s.c.)
A vertical wire netting (50 cm×49 cm). The meshes (openings) of the netting are square (1 cm×1 cm). The wire diameter is 2 mm.
The animals are labeled and used in groups of five. The test substance is injected subcutaneously (s.c.) (5 ml/kg) at 4 dose levels selected from the fixed dose scale.
The animals are placed in the middle of the vertical wire netting 60, 120, 180, 240, 300 and 360 minutes after injection of the test compound. The animals are considered cetaleptic when they remain immobile during a period of 15 seconds. This cataleptic reaction is designated +. If the rats are "atonic" and passively slides down the wire mesh they are considered not cataleptic. If the animals climb up and down the wire mesh they are nor cataleptic. In both situations the designation - is used.

Row | Compound | IC50 (Muscarinic) | Ratio Catalep./Amphetam. antag. [1]
1 | CN(C)CC/C=C1/c2ccccc2Sc2ccc(Cl)cc21 [chlorprothixene] | 0.11 µM | 0.66
2 | OCCN1CCN(CCC=C2c3ccccc3Sc3ccc(Cl)cc32)CC1 [clopenthixol] | 6 µM | 1.2
